Measurements published in publication PMC10581520 (Veterinární Medicína, 2023).

System: dog liver microsomes (CYP2D15, CYP3A12, CYP2C21/41)
Type: in vitro ADME, Beagle dog
Conditions: 100 μM quinidine, 10 μM CIT, n = 5

difference in the production of R-DCIT from CIT in comparison to absence of the inhibitor: 24.5 ± 11.4 pmol/(min × mg protein)
SMILES: C=C[C@H]1C[N@@]2CC[C@H]1C[C@@H]2[C@@H](O)c1ccnc2ccc(OC)cc12 [quinidine]
